Measured values reported in paper PMC13429874, “ABHD2 activity is not required for the non-genomic action of progesterone on human sperm” (Human Reproduction (Oxford, England), 2026).

Columns and labels:
[1] = target: T1, full-length human ABHD2 (ABHD2^FL) (Homo sapiens, UniProt P08910); test: ABHD2^FL enzymatic activity assay with 7-HCA substrate; format: biochemical; conditions: read-out: IC50, ABHD2^FL, 7-HCA assay; 5 µM 7-HCA
[2] = target: T1, full-length human ABHD2 (ABHD2^FL); test: ABHD2^FL enzymatic activity assay with resorufin butyrate (RB) substrate; format: biochemical; conditions: read-out: IC50, ABHD2^FL, RB assay; 15 µM RB
ABHD2^L33–E425 = ABHD2^L33–E425 (Homo sapiens, UniProt P08910); test: ABHD2^L33-E425 fluorometric enzymatic activity assay with 7-HCA substrate; format: biochemical; conditions: read-out: IC50, ABHD2^L33-E425, 7-HCA
CatSper = conditions: ref Miller et al. (2016); cited from earlier work
human sperm = conditions: progesterone-induced; ref Miller et al. (2016); cited from earlier work

methyl arachidonyl fluorophosphonate gave an IC50 [1] of 51 nM, an IC50 [2] of 44 nM and an IC50 (ABHD2^L33–E425) of 4.6 nM. The “progesterone-induced CatSper activation, Ca2+ influx” value (CatSper) was “suppress” and the sperm hyperactivation (human sperm) was “suppress”.
